The values that follow come from publication PMC4657098, “A Review of the Updated Pharmacophore for the Alpha 5 GABA(A) Benzodiazepine Receptor Model” (International Journal of Medicinal Chemistry, 2015).

Chains of the proteins cited; added tags and fusions are not shown. Residues count along the entry.
UniProt P48169, 36-554 limits assumed: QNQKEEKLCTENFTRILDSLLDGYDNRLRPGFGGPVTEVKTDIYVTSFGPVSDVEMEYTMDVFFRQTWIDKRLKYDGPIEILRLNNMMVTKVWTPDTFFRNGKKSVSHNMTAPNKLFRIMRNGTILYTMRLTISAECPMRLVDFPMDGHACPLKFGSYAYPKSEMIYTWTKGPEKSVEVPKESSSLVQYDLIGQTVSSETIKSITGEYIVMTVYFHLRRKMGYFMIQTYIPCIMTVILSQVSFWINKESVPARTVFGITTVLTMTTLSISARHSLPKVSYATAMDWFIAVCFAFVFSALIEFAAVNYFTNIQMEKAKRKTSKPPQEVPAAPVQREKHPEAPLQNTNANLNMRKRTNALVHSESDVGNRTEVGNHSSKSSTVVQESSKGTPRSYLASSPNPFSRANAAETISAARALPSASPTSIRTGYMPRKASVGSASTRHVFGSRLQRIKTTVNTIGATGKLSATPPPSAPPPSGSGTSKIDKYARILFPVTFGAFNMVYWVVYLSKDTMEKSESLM

What is called Ki is a dissociation constant, usually derived from enzyme kinetics or from competition with a known ligand.

The target of one assay is α6β3γ2 GABAA/BzR (Homo sapiens, UniProt P18507+Q16445). In words: Competition binding to HEK cell membranes, α6β3γ2. To be noted: read-out: Ki α6.
The target in the next assay is α5β3γ2 GABAA/BzR (Homo sapiens, UniProt P18507+P31644). In words: Competition binding to HEK cell membranes, α5β3γ2. To be noted: read-out: Ki α5.
A further assay deals with α4β3γ2 GABAA/BzR (Homo sapiens, UniProt P18507+P48169). As to conditions: read-out: Ki α4.
The target in another assay is α1β3γ2 GABAA/BzR (Homo sapiens, UniProt P14867+P18507). In words: Competition binding to HEK cell membranes, α1β3γ2. As to conditions: read-out: Ki α1.
The target of a further assay is α2β3γ2 GABAA/BzR (Homo sapiens, UniProt P18507+P47869). In words: Competition binding to HEK cell membranes, α2β3γ2. As to conditions: read-out: Ki α2.
The target of a further assay is α3β3γ2 GABAA/BzR (Homo sapiens, UniProt P18507+P34903). In words: Competition binding to HEK cell membranes, α3β3γ2. As to conditions: read-out: Ki α3.

For the compound `CCOC(=O)c1ncn2c1CN(C)C(=O)c1cc(OC)ccc1-2`, the Ki at α6β3γ2 GABAA/BzR amounted to 40 nM.
As for `CC(C)(C)OC(=O)c1ncn2c1CN=C(c1ccccc1)c1cc(Br)ccc1-2`, the Ki worked out at 2000 nM on α6β3γ2 GABAA/BzR, 10 nM at α5β3γ2 GABAA/BzR and 1000 nM at α4β3γ2 GABAA/BzR.
For `C[Si](C)(C)C#Cc1ccc2c3nn(-c4ccccc4)c(=O)c-3c[nH]c2c1`, the Ki at α6β3γ2 GABAA/BzR came out at 100 nM.
With `CCOC(=O)c1ncc2[nH]c3ccc(O)cc3c2c1COC`, the values for the Ki at α6β3γ2 GABAA/BzR and at α1β3γ2 GABAA/BzR were 3000 nM and 2 nM, respectively.
Consider `CCOC(=O)c1ncn2c1CN(C)C(=O)c1cc(C#N)ccc1-2`, for which, at α6β3γ2 GABAA/BzR, the Ki was found to be 1000 nM.
For `CCOC(=O)c1ncn2c1CN(C)C(=O)c1cc(Br)ccc1-2`, the Ki on α5β3γ2 GABAA/BzR stood at 0.7 nM.
For `CCOC(=O)c1ncn2c1CN(C)C(=O)c1ccccc1-2`, the inhibitory constant (Ki) on α6β3γ2 GABAA/BzR was 500 nM.
With `O=c1c2c[nH]c3cc(Br)ccc3c-2nn1-c1ccccc1` [QH-II-077], the Ki on α6β3γ2 GABAA/BzR was 4 nM; on α1β3γ2 GABAA/BzR it was 0.06 nM; at α2β3γ2 GABAA/BzR, 0.08 nM; on α3β3γ2 GABAA/BzR, 0.05 nM.
With `C[Si](C)(C)C#Cc1ccc(-n2nc3c4ccccc4[nH]cc-3c2=O)cc1`, the figures for the Ki on α6β3γ2 GABAA/BzR and on α1β3γ2 GABAA/BzR were 1000 nM and 3 nM, respectively.
For the compound `CCOC(=O)c1ncn2c1CN(C)C(=O)c1cc(-c3ccco3)ccc1-2`, the Ki at α5β3γ2 GABAA/BzR was 0.6 nM.
Turning to `CN1C(=O)CN=C(c2ccccc2[N+](=O)[O-])c2cc([N+](=O)[O-])ccc21`, on α6β3γ2 GABAA/BzR, the Ki is 10000 nM.
Take `CC(C)(C)c1ccc2[nH]cc3c(=O)n(-c4ccc(Br)cc4)nc-3c2c1`: the Ki at α3β3γ2 GABAA/BzR is 20 nM.
As for `CC(C)(C)c1ccc2[nH]cc3c(=O)n(-c4ccc(Cl)cc4)nc-3c2c1`, at α6β3γ2 GABAA/BzR, the Ki worked out at 1000 nM.
`CC#Cc1ccc2c(c1)C(=O)N(C)Cc1c(C(=O)OCC)ncn1-2`: the Ki on α6β3γ2 GABAA/BzR amounted to 100 nM.
Consider `CCOC(=O)c1ncn2c1CN(C)C(=O)c1cc(-c3ccccc3)ccc1-2`, for which the Ki at α1β3γ2 GABAA/BzR was 7 nM.
For `C#Cc1ccc2c(c1)C(c1ccccc1Cl)=NCc1nnc(C)n1-2`, the Ki on α6β3γ2 GABAA/BzR came to 5000 nM.
